The entries are a selection whose mix differs from that of the whole data set. The source made the active and inactive calls. Rule as the data show it: active = inhibition above about 60%; inactive = the rest.
Assay: inhibitors of lytic granule exocytosis, confirmation, TALL-104 cells, flow cytometry, Cherry Pick01 (AID 651954);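 also: 0% = stimulated vehicle wells and 100% = unstimulated wells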
Conditions: LAMP-1 externalization, at 10 µM, hits give high values, stimulated with PMA plus thapsigargin

Row | SMILES | inhibition
1 | CCC1=CC2Cc3nc4ccc(Cl)cc4c(N)c3C(C1)C2 (configuration not stated) | inactive: -8.36%
2 | COc1ccc(C2=NCC(CBr)S2)cc1 (configuration not stated) | inactive: -4.65%

From PubChem BioAssay AID651954 (NMMLSC, 2012)
